For the series the following is noted: experimental values compiled from the literature.

Turning to `COc1ccc(CN(CC(=O)NC(C)C)C(=O)CCCCC[n+]2ccc(/C=N/O)cc2)cc1.[Br-]`, the pKa was 8.5.

`CCOP(=O)(OCC)Oc1ccc([N+](=O)[O-])cc1` gave a pKa of 8.5.

The compound `CCOP(=O)(SC(C)CC)N1CCCC1` (stereo unspecified) showed a pKa of 25.

`O=[N+]([O-])c1cccc([N+](=O)[O-])c1O` registered a pKa of 3.7.

Consider `C[n+]1ccc(/C=N/O)cc1.[I-]`, for which the pKa came out at 8.6.

As for `NC1CCCCC1.NP(=O)(O)N(CCCl)CCCl`, the pKa amounted to 4.58.
